Results on three molecules are retold here after ChEMBL document CHEMBL1221209.

By UniProt entry, the sequences of proteins in these tests, tags left out.
UniProt O08914, whole entry: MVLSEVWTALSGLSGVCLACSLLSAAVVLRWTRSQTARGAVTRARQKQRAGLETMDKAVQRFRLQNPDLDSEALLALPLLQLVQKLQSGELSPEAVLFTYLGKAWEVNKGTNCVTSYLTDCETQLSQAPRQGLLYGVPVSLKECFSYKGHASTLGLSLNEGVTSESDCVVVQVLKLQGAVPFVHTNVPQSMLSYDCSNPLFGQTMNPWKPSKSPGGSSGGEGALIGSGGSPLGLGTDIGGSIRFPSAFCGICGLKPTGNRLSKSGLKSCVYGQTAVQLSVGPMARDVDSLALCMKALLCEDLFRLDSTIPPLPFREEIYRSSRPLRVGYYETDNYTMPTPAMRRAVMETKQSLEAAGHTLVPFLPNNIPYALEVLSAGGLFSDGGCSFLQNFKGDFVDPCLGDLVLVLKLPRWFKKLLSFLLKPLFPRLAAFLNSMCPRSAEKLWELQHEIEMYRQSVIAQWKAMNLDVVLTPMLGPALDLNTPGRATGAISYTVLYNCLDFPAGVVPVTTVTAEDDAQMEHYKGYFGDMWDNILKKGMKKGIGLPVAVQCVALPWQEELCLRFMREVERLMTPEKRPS
UniProt O35678, whole entry: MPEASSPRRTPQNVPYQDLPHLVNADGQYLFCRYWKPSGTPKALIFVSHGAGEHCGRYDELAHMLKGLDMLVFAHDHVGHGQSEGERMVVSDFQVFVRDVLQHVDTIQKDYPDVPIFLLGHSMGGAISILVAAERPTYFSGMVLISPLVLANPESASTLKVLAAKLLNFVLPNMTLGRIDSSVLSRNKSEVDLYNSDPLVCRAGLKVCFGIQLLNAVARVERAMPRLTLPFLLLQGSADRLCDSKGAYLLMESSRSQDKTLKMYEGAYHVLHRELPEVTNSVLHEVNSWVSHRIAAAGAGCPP

The subject of experiment [1] is Brain. As to the kind of experiment: Disruption of endocannabinoid metabolism in KIAA1363 deficient Swiss Webster mouse brain assessed as anandamide level per gram of tissue at 100 mg/kg, ip after 4 hrs. Conditions: route intraperitoneal, strain Swiss Webster.
Experiment [2] relates to Brain. Briefly: Disruption of endocannabinoid metabolism in KIAA1363 deficient Swiss Webster mouse brain assessed as arachidonic acid level per gram of tissue at 100 mg/kg, ip after 4 hrs. The settings on record: route intraperitoneal, strain Swiss Webster.
In experiment [3] the test system is Brain. Briefly: Disruption of endocannabinoid metabolism in KIAA1363 deficient Swiss Webster mouse brain assessed as 2-arachidonylglycerol level per gram of tissue at 100 mg/kg, ip after 4 hrs. The settings on record: route intraperitoneal, strain Swiss Webster.
Experiment [4] has as its system Brain. Briefly: Disruption of endocannabinoid metabolism in Swiss Webster mouse brain expressing KIAA1363 gene assessed as arachidonic acid level per gram of tissue at 100 mg/kg, ip after 4 hrs. The settings on record: route intraperitoneal, strain Swiss Webster.
In experiment [5] the test system is Brain. Briefly: Disruption of endocannabinoid metabolism in KIAA1363 deficient Swiss Webster mouse brain assessed as N-palmitoyl-ethanolamine level per gram of tissue at 100 mg/kg, ip after 4 hrs. Conditions: route intraperitoneal, strain Swiss Webster.
Experiment [6] relates to Brain. As to the kind of experiment: Disruption of endocannabinoid metabolism in KIAA1363 deficient Swiss Webster mouse brain assessed as saturated C22:0 fatty acid level per gram of tissue at 100 mg/kg, ip after 4 hrs. The settings on record: route intraperitoneal, strain Swiss Webster.
The subject of experiment [7] is Brain. Briefly: Disruption of endocannabinoid metabolism in KIAA1363 deficient Swiss Webster mouse brain assessed as saturated C18:0 fatty acid level per gram of tissue at 100 mg/kg, ip after 4 hrs. Conditions: route intraperitoneal, strain Swiss Webster.
Experiment [8] has as its system Brain. Briefly: Disruption of endocannabinoid metabolism in Swiss Webster mouse brain expressing KIAA1363 gene assessed as 2-arachidonylglycerol level per gram of tissue at 100 mg/kg, ip after 4 hrs. The settings on record: route intraperitoneal, strain Swiss Webster.
In experiment [9] the test system is Brain. As to the kind of experiment: Disruption of endocannabinoid metabolism in Swiss Webster mouse brain expressing KIAA1363 gene assessed as saturated C22:0 lipid level per gram of tissue at 100 mg/kg, ip after 4 hrs. The settings on record: route intraperitoneal, strain Swiss Webster.
Experiment [10] concerns Brain. As to the kind of experiment: Disruption of endocannabinoid metabolism in KIAA1363 deficient Swiss Webster mouse brain assessed as unsaturated C20:4 fatty acid level per gram of tissue at 100 mg/kg, ip after 4 hrs. Conditions: route intraperitoneal, strain Swiss Webster.
Experiment [11] has as its system Brain. As to the kind of experiment: Disruption of endocannabinoid metabolism in KIAA1363 deficient Swiss Webster mouse brain assessed as unsaturated C24:1 fatty acid level per gram of tissue at 100 mg/kg, ip after 4 hrs. The settings on record: route intraperitoneal, strain Swiss Webster.
Experiment [12] deals with Brain. As to the kind of experiment: Disruption of endocannabinoid metabolism in Swiss Webster mouse brain expressing KIAA1363 gene assessed as N-palmitoyl-ethanolamine level per gram of tissue at 100 mg/kg, ip after 4 hrs. The settings on record: route intraperitoneal, strain Swiss Webster.
Experiment [13] has as its system Brain. As to the kind of experiment: Disruption of endocannabinoid metabolism in Swiss Webster mouse brain expressing KIAA1363 gene assessed as saturated C18:0 fatty acid level per gram of tissue at 100 mg/kg, ip after 4 hrs. The settings on record: route intraperitoneal, strain Swiss Webster.
Experiment [14] has as its system Brain. Briefly: Disruption of endocannabinoid metabolism in Swiss Webster mouse brain expressing KIAA1363 gene assessed as unsaturated C18:2 fatty acid level per gram of tissue at 100 mg/kg, ip after 4 hrs. The settings on record: route intraperitoneal, strain Swiss Webster.
For experiment [15], the system named is Brain. Briefly: Disruption of endocannabinoid metabolism in Swiss Webster mouse brain expressing KIAA1363 gene assessed as unsaturated C20:4 fatty acid level per gram of tissue at 100 mg/kg, ip after 4 hrs. Conditions: route intraperitoneal, strain Swiss Webster.
Experiment [16] concerns Brain. As to the kind of experiment: Disruption of endocannabinoid metabolism in Swiss Webster mouse brain expressing KIAA1363 gene assessed as unsaturated N-oleoyl-ethanolamine level per gram of tissue at 100 mg/kg, ip after 4 hrs. The settings on record: route intraperitoneal, strain Swiss Webster.
In experiment [17] the target is Fatty-acid amide hydrolase 1 (Mus musculus, UniProt O08914). Briefly: Displacement of [3H]anandamide from FAAH in Swiss Webster mouse brain after 5 mins.
The next experiment addresses Monoglyceride lipase (Mus musculus, UniProt O35678). As to the kind of experiment: Displacement of 2-arachidonylglycerol from MAGL in Swiss Webster mouse brain after 5 mins. Conditions: strain Swiss Webster.
For experiment [18], the system named is Brain. Briefly: Inhibition of anandamide hydrolysis in Swiss Webster mouse brain at 4 mg/kg, ip after 4 hrs. The settings on record: route intraperitoneal, strain Swiss Webster.
The subject of experiment [19] is Brain. Briefly: Inhibition of 2-arachidonylglycerol hydrolysis in Swiss Webster mouse brain at 4 mg/kg, ip after 4 hrs. Conditions: route intraperitoneal, strain Swiss Webster.
The subject of experiment [20] is Brain. As to the kind of experiment: Disruption of endocannabinoid metabolism in Swiss Webster mouse brain assessed as anandamide level per gram of tissue at 4 mg/kg, ip after 4 hrs. The settings on record: route intraperitoneal, strain Swiss Webster.
For experiment [21], the system named is Brain. As to the kind of experiment: Disruption of endocannabinoid metabolism in Swiss Webster mouse brain assessed as arachidonic acid level per gram of tissue at 4 mg/kg, ip after 4 hrs. The settings on record: route intraperitoneal, strain Swiss Webster.
Experiment [22] relates to Brain. Briefly: Disruption of endocannabinoid metabolism in Swiss Webster mouse brain assessed as 2-arachidonylglycerol level per gram of tissue at 4 mg/kg, ip after 4 hrs. The settings on record: route intraperitoneal, strain Swiss Webster.
For experiment [23], the system named is Brain. Briefly: Disruption of endocannabinoid metabolism in Swiss Webster mouse brain assessed as N-palmitoyl-ethanolamine level per gram of tissue at 4 mg/kg, ip after 4 hrs. Conditions: route intraperitoneal, strain Swiss Webster.
The test system of experiment [24] is Brain. Briefly: Disruption of endocannabinoid metabolism in Swiss Webster mouse brain assessed as saturated C22:0 fatty acid level per gram of tissue at 4 mg/kg, ip after 4 hrs. Conditions: route intraperitoneal, strain Swiss Webster.
Experiment [25] deals with Brain. As to the kind of experiment: Disruption of endocannabinoid metabolism in Swiss Webster mouse brain assessed as unsaturated C24:1 fatty acid level per gram of tissue at 4 mg/kg, ip after 4 hrs. The settings on record: route intraperitoneal, strain Swiss Webster.
For experiment [26], the system named is Brain. Briefly: Disruption of endocannabinoid metabolism in Swiss Webster mouse brain assessed as unsaturated N-oleoyl-ethanolamine level per gram of tissue at 4 mg/kg, ip after 4 hrs. Conditions: route intraperitoneal, strain Swiss Webster.

Only a part of the results on these compounds is given; other tests are left out.

Turning to `CCOP(=S)(OCC)Oc1nc(Cl)c(Cl)cc1Cl`, the Activity stood at 0.019 nmol/g with Brain [1]; 17 nmol/g in the experiment with Brain [2]; 54 nmol/g in the experiment on Brain [3]; 34 nmol/g with Brain [4]; 1510 pmol/g in the experiment on Brain [5]; 160 pmol/g with Brain [6]. In addition, the Activity in the experiment on Brain [7] came to 779 pmol/g; in the experiment on Brain [8] it was 19 nmol/g; with Brain [9] it was 120 pmol/g; in the experiment with Brain [10], 19 pmol/g; in the experiment on Brain [11] it was 191 pmol/g; with Brain [12], 1280 pmol/g. The Activity in the experiment with Brain [13] was 651 pmol/g; in the experiment on Brain [14] it was 18 pmol/g; in the experiment on Brain [15], 19 pmol/g; in the experiment with Brain [16], 651 pmol/g.
For `CCOP(=O)(OCC)Oc1ccc([N+](=O)[O-])cc1`, the IC50 in experiment [17] came to 5.9 µM; at Monoglyceride lipase, 1.2 µM.
In the case of `CCOP(=O)(OCC)Oc1nc(Cl)c(Cl)cc1Cl`, the figures for the inhibition (INH) with Brain [18] and with Brain [19] were 82% and 75%, respectively. The Activity with Brain [20] was 0.011 nmol/g; in the experiment on Brain [21] it was 30 nmol/g; in the experiment with Brain [22], 40 nmol/g; in the experiment with Brain [23], 810 pmol/g; with Brain [24], 29 pmol/g; in the experiment with Brain [25], 47 pmol/g. Besides, the Activity with Brain [26] was 535 pmol/g.
